Reference: US20180110824A1
pEC50, pKi: −log10 of the molar value. Read-outs that look alike come from different tables or passages of the source. Values belong to the molecule of their own block, whether it stands above or below them.

Protein sequences, listed by entry. Tags and fused reporters are not part of them.
UniProt Q92847, whole entry: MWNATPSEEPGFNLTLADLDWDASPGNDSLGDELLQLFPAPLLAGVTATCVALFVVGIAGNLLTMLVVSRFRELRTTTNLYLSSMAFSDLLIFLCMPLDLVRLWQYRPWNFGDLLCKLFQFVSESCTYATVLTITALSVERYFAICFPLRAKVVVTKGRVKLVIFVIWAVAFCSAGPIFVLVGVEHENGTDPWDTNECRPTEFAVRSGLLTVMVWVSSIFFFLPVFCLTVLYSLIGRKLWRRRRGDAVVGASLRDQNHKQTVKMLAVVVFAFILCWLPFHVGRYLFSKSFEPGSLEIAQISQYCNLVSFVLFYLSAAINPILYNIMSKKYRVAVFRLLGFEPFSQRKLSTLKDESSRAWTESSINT
UniProt O43193, whole entry: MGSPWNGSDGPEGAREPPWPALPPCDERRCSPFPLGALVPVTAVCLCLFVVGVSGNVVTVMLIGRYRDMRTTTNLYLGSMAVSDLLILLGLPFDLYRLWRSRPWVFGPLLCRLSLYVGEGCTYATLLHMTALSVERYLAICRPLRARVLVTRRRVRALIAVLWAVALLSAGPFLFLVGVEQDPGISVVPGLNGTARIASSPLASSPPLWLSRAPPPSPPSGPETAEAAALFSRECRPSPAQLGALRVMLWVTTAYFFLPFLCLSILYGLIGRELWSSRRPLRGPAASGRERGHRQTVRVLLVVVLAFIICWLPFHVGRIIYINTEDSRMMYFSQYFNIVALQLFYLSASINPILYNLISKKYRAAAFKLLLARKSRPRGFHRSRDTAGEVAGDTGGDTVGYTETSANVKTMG

Legend:
[1] = biological target: human growth hormone secretagogue receptor (hGHS-R1a) (Homo sapiens, UniProt Q92847); assay: Competitive radioligand binding assay (ghrelin receptor), [125I]-ghrelin displacement on GHS-R/HEK 293 membranes
[2] = biological target: human ghrelin receptor (hGHS-R1a) (Homo sapiens, UniProt Q92847); type: cell-based; conditions: Table 4, functional (agonist) activity, TFA salts unless otherwise noted
motilin receptor = motilin receptor (Homo sapiens, UniProt O43193); assay: Selectivity for the ghrelin receptor versus the motilin receptor
[3] = read-out: Binding Activity at the Human Ghrelin Receptor (Ki), [125I]-ghrelin displacement, GHS-R/HEK 293 membranes, class symbols
[4] = Table 3B, binding activity at the human ghrelin receptor
[5] = Binding activity at the human ghrelin receptor, [125I]-ghrelin displacement
[6] = Table 4, TFA salts unless otherwise noted

pKi ([1]; Binding activity at the human ghrelin receptor, [125I]-ghrelin displacement, tested form: formate): 6.00 to 7.00 | pKi ([1]; Table 4, TFA salts unless otherwise noted, tested form: formate): 7.00 to 8.00 | pEC50 ([2]; tested form: formate): 6.00 to 7.00
SMILES: CC(C)C[C@@H]1NCCOc2ccccc2CCCNC(=O)[C@H](Cc2ccccc2)NC(=O)C2(CCCC2)NC1=O

pKi ([1]; Table 3D): < 5.00
SMILES: CCC(C)C1NCCOc2ccccc2/C=C/CNC(=O)C(COC)NC(=O)C2(CCCC2)NC1=O (centres unmarked)

pKi [1, 3]: 6.00 to 7.00
SMILES: CCC(C)C1NCCOc2ccccc2CCCNC(=O)C(Cc2ccccc2)NC(=O)C(CO)N(C)C1=O (centres unmarked)

pKi [1, 3]: < 6.00
SMILES: CC(C)CC1NCCOc2ccccc2/C=C/CNC(=O)C(Cc2ccccn2)NC(=O)C2(CCCC2)NC1=O (centres unmarked)

pKi [1, 3]: 7.00 to 8.00
SMILES: CCC(C)C1NCCOc2ccccc2/C=C/CNC(=O)C(Cc2ccccc2)NC(=O)C2(CCCC2)NC1=O (centres unmarked)

pKi [1, 3]: 6.00 to 7.00
SMILES: CCC(C)[C@@H]1NCCOc2ccccc2CCCNC(=O)[C@@H](Cc2ccccc2)NC(=O)[C@H](CO)N(C)C1=O (some centres unmarked)

pKi [1, 4]: 6.00 to 7.00
SMILES: CCC(C)C1NCCOc2ccccc2/C=C/CNC(=O)C(Cc2cccc(C(F)(F)F)c2)NC(=O)C2(CCCC2)NC1=O (centres unmarked)

pKi [1, 4]: 8.00 to 10.00
SMILES: CC[C@H](C)[C@@H]1NCCOc2ccccc2/C=C/CNC(=O)[C@H](Cc2ccc(Cl)c(Cl)c2)NC(=O)C2(CCCC2)NC1=O

pKi [1, 3]: < 5.00
SMILES: CC(C)C[C@@H]1NCCOc2ccccc2/C=C/CNC(=O)[C@H](Cc2ccncc2)NC(=O)C2(CCCC2)NC1=O

pKi [1, 4]: 7.00 to 8.00
SMILES: CC1C(=O)NC(Cc2ccc(F)cc2)C(=O)NCCCc2ncccc2OCCNC(C2CC2)C(=O)N1C (centres unmarked)

pKi [1, 5]: < 5.00
SMILES: CC(C)C[C@@H]1NCC/C=C/CCNC(=O)[C@H](Cc2ccccc2)NC(=O)C2(CCCC2)NC1=O

pKi [1, 5]: < 6.00
SMILES: CCCC1C(=O)NC(Cc2ccccc2)C(=O)NCCCc2ccccc2OCCNC(C(C)CC)C(=O)N1C (centres unmarked)

pKi [1, 4]: 7.00 to 8.00
SMILES: CCC(C)C1NCCCc2ccccc2C=CCNC(=O)C(Cc2ccc(F)cc2)NC(=O)C(C)N(C)C1=O (centres unmarked)

pKi ([1]; Table 3D): < 5.00
SMILES: CCC(C)C1NCCOc2ccccc2/C=C/CNC(=O)C(CO)NC(=O)C2(CCCC2)NC1=O (centres unmarked)

pKi [1, 5]: < 5.00
SMILES: CCOC(=O)CC[C@@H]1NC(=O)C2(CCCC2)NC(=O)[C@H](CC(C)C)NCCOc2ccccc2/C=C/CNC1=O

pKi [1, 5]: 7.00 to 8.00 | pKi [1, 6]: 7.00 to 8.00 | pEC50 [2]: 6.00 to 7.00
SMILES: CCC(C)C1NCCCc2ccccc2C=CCNC(=O)C(Cc2ccccc2)NC(=O)C(C)N(C)C1=O (centres unmarked)

pKi [1, 6]: 6.00 to 7.00 | pEC50 [2]: 6.00 to 7.00
SMILES: CCC(C)C1NCCCCCCCCNC(=O)C(Cc2ccccc2)NC(=O)C(C)N(C)C1=O (centres unmarked)

pKi [1, 4]: 6.00 to 7.00
SMILES: CCC(C)C1NCCOc2ccccc2/C=C/CNC(=O)C(Cc2ccc(F)c(F)c2)NC(=O)C2(CCCC2)NC1=O (centres unmarked)

pKi [1, 3]: < 6.00
SMILES: CC(C)CC1NCCOc2ccccc2/C=C/CNC(=O)C(Cc2cccnc2)NC(=O)C2(CCCC2)NC1=O (centres unmarked)

pKi [1, 4]: 6.00 to 7.00
SMILES: CC[C@H](C)[C@@H]1NCCOc2ccccc2CCCNC(=O)[C@@H](Cc2c[nH]cn2)NC(=O)[C@@H](C)N(C)C1=O

pKi [1, 3]: < 5.00
SMILES: CCC(C)C1NCCCCCCCNC(=O)C(Cc2ccccc2)NC(=O)C(C)N(C)C1=O (centres unmarked)

pKi [1, 4]: 7.00 to 8.00
SMILES: CCC(C)C1NCC(C)Oc2ccccc2CCCNC(=O)C(Cc2cccc(Cl)c2)NC(=O)C2(CCCC2)NC1=O (single isomer, unassigned) [368b]

Selectivity (motilin receptor): 300/1 | pKi [1, 4]: 6.00 to 7.00 | pKi [1, 6]: 8.00 to 10.00 | pEC50 [2]: < 6.00
SMILES: CC[C@H](C)[C@@H]1NC[C@H](C)Oc2ccccc2CCCNC(=O)[C@H](Cc2cccc(Cl)c2)NC(=O)C2(CCCC2)NC1=O

pKi ([1]; Table 3D): < 5.00
SMILES: CC[C@H](C)[C@@H]1NCCOc2ccccc2/C=C/CNC(=O)[C@H](COC)NC(=O)C2(CCCC2)NC1=O

pKi ([1]; Table 3D): 5.00 to 6.00
SMILES: C[C@@H]1C(=O)N[C@H](Cc2ccc(F)cc2)C(=O)NCCOCCOCCN[C@@H](C2CC2)C(=O)N1C

pKi [1, 5]: 5.00 to 6.00
SMILES: CCC[C@@H]1NCc2cccc(c2)CNC(=O)[C@@H](Cc2ccccc2)NC(=O)CN(C)C1=O

pKi [1, 4]: 6.00 to 7.00
SMILES: CC[C@H](C)[C@@H]1NCCOc2ccccc2/C=C/CNC(=O)[C@H](COCc2ccccc2)NC(=O)C(C)(C)NC1=O

pKi [1, 4]: 7.00 to 8.00
SMILES: CCC(C)C1NCCOc2ccccc2/C=C/CNC(=O)C(Cc2cccc(Cl)c2)NC(=O)C2(CCCC2)NC1=O (centres unmarked)

pKi [1, 3]: < 6.00
SMILES: CC(C)C[C@@H]1NCCOc2ccccc2/C=C/CNC(=O)[C@H](Cc2ccccn2)NC(=O)C2(CCCC2)NC1=O

pKi ([1]; Table 3D): < 5.00
SMILES: CC[C@H](C)[C@@H]1NCCOc2ccccc2/C=C/CNC(=O)[C@H](CO)NC(=O)C2(CCCC2)NC1=O

pKi [1, 5]: 6.00 to 7.00
SMILES: CC(C)C1NCCOc2ccccc2/C=C/CNC(=O)C(Cc2ccccc2)NC(=O)C(C)N(C)C1=O (centres unmarked)

pKi [1, 5]: < 5.00
SMILES: CCC[C@@H]1NCCC#CCCNC(=O)[C@@H](Cc2ccccc2)NC(=O)CN(C)C1=O

pKi [1, 5]: < 5.00
SMILES: CCC(C)C1NCCOc2ccccc2CCCNC(=O)C(Cc2ccccc2)NC(=O)C(C(C)CC)N(C)C1=O (centres unmarked)

pKi [1, 5]: 6.00 to 7.00
SMILES: CCC1NCCOc2ccccc2/C=C/CNC(=O)C(Cc2ccccc2)NC(=O)C2(CCCC2)NC1=O (centres unmarked)

pKi [1, 5]: < 5.00 | binding potency ([1]; linear (not cyclized) analogues of compounds 10 and 133): lack of binding potency
SMILES: CC(=O)N(CCOc1ccccc1CCCN)[C@@H](CC(C)C)C(=O)NC1(C(=O)N[C@@H](Cc2ccccc2)C(N)=O)CCCC1
